Assay results published in patent US20040072162A1, “Hiv peptides and nucleic acids encoding them for diagnosis and control of hiv infection” (priority 2000, published 2004).

Legend:
[1] = molecular target: HLA-A2 MHC-I (HLA-A*0204) (Homo sapiens, UniProt P04439, D140Y/D185E/D98H/E176V/E277Q/G131W/G231S/I119V/I121M/I166T/I218V/L300P/L318F/N151K/N90K/P208A/P217A/Q86G/Q94H/R138H/R169H/T345S); experiment: biochemical
EL4-A2 target cells = experiment: 51Cr release CTL assay with splenocytes of peptide-immunised HLA-A2 transgenic mice, peptide-pulsed EL4-A2 targets; assay type: in vivo, mouse; conditions: for specific lysis of EL4-A2 targets pulsed with the immunising peptide: splenocytes restimulated in vitro with the same peptide
Method: Usually 3 mice were injected per query peptide. CTL was measured at day 10.
LPS blasts were prepared from 1 normal spleen (non-immunised HLA-A2 mouse) 3-5×10^6 splenocytes per ml of UPS medium in a final volume of 40 ml. LPS medium was RPMI 1640, 1% penicillin-streptomycin, 2% Hepes, 10% FCS, 7 μg/100 ml medium of dextran sulphate (Pharmacia #17034-01) and 25 ug/100 ml medium of LPS (Sigma #L-2387). After 3 days of culturing the splenocytes in LPS medium, the LPS blasts were treated with mitomycin to inhibit cell division. LPS blasts were treated with mitomycin at the same time as they were loaded with the target peptide. 2 ml of blasts were mixed with 20 μg of peptide and 100 μg of mitomycin in PBS. Incubate 1 hour at 37° C. in 5% CO2 in an Incubator. LPS blasts were then washed in media and adjusted to 2×10^7 cells/ml of medium (RPMI 1640, P+S, Hepes, 50 μM mercaptoethanol).
In the present invention EL-4-A2 or EL4 cells or EL4-A2 kb Cell line are interchangeable and described as follows: The plasmid pA2 kb is a kind gift from Nikolas Holmes. 10^7 EL4 cells (ATCC TIB-39) are electroporated with 20 μg of pA2 kb using the Gene Pulser system (BIO-RAD) (Potter et al., 1993). Electroporation was performed according to the manufactor's recommendations. Selection is undertaken after 48 hr with 600 μg/ml geneticin (G418 Gibco BRL). Cell clones are screened with the HLA-A2 specific monoclonal antibody (BB7.2 ATCC-HB82) by FACS analysis.
The method to validate an improved epitope for its ability to raise a CTL immune response that cross-reacts with the natural epitope is similar to that described in example 7. A2 transgenic immunisation: Mice were immunised with the selected improved epitope using 100 μl out of 600μ of a mixture containing IFA (30%), HBV T-helper epitope (960 μg) and test epitope (800 μg). CTL was measured at day 10 post-immunisation.
In vitro simulation of CTL effectors: Splenocytes obtained from the immunised mice were divided in two parts. The first half of the splenocytes were stimulated in the presence of LPS blasts loaded with the related natural epitope peptide.

[2] = test system: EL4 target cells (HLA-A2 negative); conditions: negative control targets

In the case of `CC(C)C[C@H](NC(=O)[C@@H](N)CCCCN)C(=O)N[C@@H](CCCCN)C(=O)N1CCC[C@H]1C(=O)N1CCC[C@H]1C(=O)N[C@@H](CC(C)C)C(=O)N1CCC[C@H]1C(=O)N[C@@H](CO)C(=O)N[C@H](C(=O)O)C(C)C` [8.10mod], the Kd [1] is reported as 6.4 nM.
In the case of `CC[C@H](C)[C@H](NC(=O)[C@H](CC(C)C)NC(=O)[C@H](CCC(N)=O)NC(=O)[C@H](CC(=O)O)NC(=O)[C@H](C)NC(=O)[C@H](CC(C)C)NC(=O)CN)C(=O)N[C@@H](Cc1c[nH]cn1)C(=O)N[C@H](C(=O)O)C(C)C` [8.11mod], the Kd [1] is reported as 32 nM.
`CC(C)C[C@H](NC(=O)[C@H](CCCCN)NC(=O)[C@H](Cc1ccccc1)NC(=O)[C@H](CS)NC(=O)[C@H](Cc1c[nH]c2ccccc12)NC(=O)CNC(=O)[C@H](Cc1ccccc1)NC(=O)[C@H](CC(C)C)NC(=O)[C@@H](N)CC(C)C)C(=O)O` [8.45] was tested, and the “specific lysis of EL4A2 targets pulsed with the natural peptide by splenocytes induced against the improved epitope” value (EL4-A2 target cells; E:T ratio of 50, restimulated 5 days in vitro) was 14% and the “specific lysis of EL4-A2 targets pulsed with the immunising peptide” value (EL4-A2 target cells; E:T ratio of 50) was 90%.
`CC(C)C[C@H](NC(=O)[C@H](CCCCN)NC(=O)[C@H](Cc1ccccc1)NC(=O)[C@H](CS)NC(=O)[C@H](Cc1c[nH]c2ccccc12)NC(=O)CNC(=O)[C@H](Cc1ccccc1)NC(=O)[C@H](CC(C)C)NC(=O)[C@@H](N)CC(C)C)C(=O)O` [8.45mod] showed a Kd [1] of 25 nM.
In the case of `CC(C)C[C@H](NC(=O)[C@H](CC(C)C)NC(=O)[C@@H](N)CCCNC(=N)N)C(=O)N[C@@H](CC(N)=O)C(=O)N[C@@H](C)C(=O)N[C@@H](Cc1c[nH]c2ccccc12)C(=O)N[C@H](C(=O)N[C@@H](CCCCN)C(=O)N[C@H](C(=O)O)C(C)C)C(C)C` [8.54], the “CTL response to the peptide used for immunisation” value (EL4-A2 target cells; FIG. 3, seen in one of 4 mice, less response in mouse 2) is reported as “clear response”, the “cross-reaction of CTL with the related natural epitope” value (EL4-A2 target cells; FIG. 3, targets pulsed with 8.54Nat, one of 4 mice) is reported as “cross-reaction to the related natural epitope” and the “unspecific lysis of peptide-loaded HLA-A2 negative EL4 target cells” value [2] is reported as “do not react”.
In the case of `CC(C)C[C@H](NC(=O)[C@@H](N)CC(N)=O)C(=O)N[C@@H](Cc1c[nH]c2ccccc12)C(=O)N[C@@H](C)C(=O)N[C@H](C(=O)N[C@@H](Cc1c[nH]cn1)C(=O)N[C@@H](C)C(=O)N[C@@H](CS)C(=O)N[C@H](C(=O)O)C(C)C)[C@@H](C)O` [8.75mod], the Kd [1] is reported as 23 nM.
For ILKEPVHGV [H3, reference compound], the “specific lysis of EL4-A2 targets pulsed with the immunising peptide” value (EL4-A2 target cells; E:T ratio of 50) was greater than 10% and the “unspecific lysis of peptide-loaded HLA-A2 negative EL4 target cells” value [2] was “No unspecific lysis”.
